Reference: publication PMC6154706, “Inhibitory Effect of Triterpenoids from Panax ginseng on Coagulation Factor X” (Molecules : A Journal of Synthetic Chemistry and Natural …, 2017)

Assays:
[1] = biological target: T1, coagulation factor Xa (FXa) (Bos taurus, UniProt P00743); test: FXa activity assay in vitro (chromogenic substrate method); assay type: biochemical; details: FXa 0.5 nM, pH 7.4, 37 °C, OD 405 nm; read-out: IC50 against coagulation factor Xa (FXa)
T1 construct: purchased New England Biolabs (Hitchin, UK)
Description: 10 µL of FXa (final concentration of 0.5 nM), 40 µL of Tris buffer (adjusted to pH 7.4 with HCl containing 0.3 M NaCl and 50 mM Tris) and 10 µL of test compounds were added to the well, respectively. The negative control was performed using the same mixed solutions except that the test compound was replaced with DMSO. […] After 15 min of incubation at 37 °C, FXa substrate (40 μL, final concentration of […]) was added and then was incubated 37 °C for 25 min [3]. The optical density (OD) values at 405 nm were evaluated by an automated microplate reader. […] Inhibition rate was calculated by the following formula: Anti-FXa activity = (V0 − Vi)/V0 [21]. The IC50 value was subsequently calculated by SPSS 19.0.

[2] = set-up: method as in PMID 18957175; details: acidic and high-temperature conditions, especially in the stomach; cited from earlier work
human FIIa (thrombin) = biological target: T2, human FIIa (thrombin) (Homo sapiens, UniProt P00734); test: Thrombin inhibition in vitro (chromogenic substrate CS-01(38)); assay type: biochemical; details: pH 7.4, 37 °C, 405 nm
T2 construct: purchased Hyphen BioMed (Paris, France)
Description: The inhibition of thrombin was evaluated by human FIIa and chromogenic substrate CS-01(38) in 96-well microtiter plates at room temperature. Compounds 5, 13 and 18 as well as the positive reagent Ximelagatran were dissolved in DMSO to a concentration of 1mM and then serially diluted to a range of 10 μM to 100 μM, respectively. 8 μL of FIIa (3 NIH U/mL), 80 μL of Tris buffer (adjusted to pH 7.4 with HCl) containing 0.3 M NaCl and 50 mM Tris and 8 μL of test compounds were added to the well, respectively. The negative control was performed using the same mixed solutions except that tested compounds were replaced with DMSO. The positive control was performed using the same mixed solutions except that the test compounds were replaced with ximelagatran. After incubation at 37 °C for 15 min, 12 μL of FIIa substrate solution (4 mM) was added and then incubated at 37 °C for 25 min [3]. The anti-FIIa activity was measured at 405 nm using a microplate reader.

Row | Substance | IC50 [1] [nM] | Chemical structure stability [2] | IC50 (human FIIa (thrombin)) [nM]
1 | 20(R)-Rg3 | 815 |  | 
2 | ginsenoside Rg3 | 127 | unstable chemical structure | 92600
